Compound activity: PubChem BioAssay, National Center for Advancing Translational Sciences (NCATS)
LMNA splice mod = LMNA splicing modulation; HeLa LMNA splicing GFP/RFP minigene ratio, 48 h; Potency, µM (titrated, usually from 46.1 µM), inactives show at the highest dose ratio change, negative = inhibition, hits mostly inhibitors; hit rate 0.01% among 200,000; active = well fitted inhibition curve with a large enough effect in the signal ratio, with a control signal flat, not every such curve was filed as active; inconclusive = small, poorly fitted or top-dose-only effect, or effect the other way, or a change in a side signal; the % refers to the signal ratio; also: potency is read from the fitted curve at half-maximal effect; % is scaled to controls: 0 for no effect and ±100 for the full control effect
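S3 HeLa cells stably expressing lamin A-EGFP splicing minigene plus DsRed2, 600 cells/well, 48 h compound exposure at 37C. Laser-scanning cytometry; analysed as GFP (500-530 nm)/RFP (575-640 nm) total intensity ratio; 0.5% DMSO vehicle.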
miR-21 FLuc = miR-21 reporter, rising signal | HeLa miR-21 FLuc reporter, luciferase, 48 h | Potency, µM (top dose mostly 38.3 µM), inactives show at the highest dose reporter change, positive = more light | 340,000 tested, under 10 active | AID 2288; active = well fitted rising curve with a large enough effect; inconclusive = small, poorly fitted or top-dose-only effect; inactive = no such curve, though single readings can be large or run the other way;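 note: % of control where 0% means no effect; miR-21 action dims this reporter so a rising signal means less miR-21 action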
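Using DMEM plus 10% FBS, HeLa miR-21-FLuc cells are incubated with test compounds (final up to about 40uM) for 48 hours; firefly luciferase signal is then imaged following reagent-mediated lysis.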
ALDH1A1 block = ALDH1A1 (human) enzyme inhibition. P00352. Purified ALDH1A1, NADH fluorescence, propionaldehyde substrate. Potency, µM (top dose mostly 75.3 µM), for inactives: top-dose activity, negative = inhibition, hits mostly inhibitors. hit rate 7.3% among 220,000; active = well fitted inhibition curve with a large enough effect, not every such curve was filed as active; inconclusive = small, poorly fitted or top-dose-only effect, or another doubt; inactive = no such curve, though single readings can be large or run the other way;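 also: potency is read from the fitted curve at half-maximal effect; plate controls were no enzyme wells and a reference inhibitor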
G9a inh = G9a (human) methyltransferase inhibition; G9a H3K9 monomethylation, AlphaScreen, 2 h; Potency, µM (titrated, usually from 102 µM), inactives show at the top dose activity, negative = inhibition, hits mostly inhibitors; hit rate 8.8% among 350,000; also: potency is read from the fitted curve at half-maximal effect; % is scaled to controls: 0 for no effect and ±100 for the full control effect; nearly all actives have a fitted effect of over 75% in size
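Chemiluminescent proximity detection of H3K9 monomethylation, read after 10 min bead incubation in the dark. Reaction: 20 nM G9a, 500 nM biotin-H3K9 peptide, 20 uM SAM cofactor, 2 h, room temperature, following 15 min enzyme-compound preincubation.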
KDM4E inh = JMJD2E (human) inhibition; JMJD2E catalytic domain, FDH-coupled NADH fluorescence (FDH is formaldehyde dehydrogenase); AID 2147; Potency, µM (highest dose often 57.1 µM), inactives show at the top dose activity change, negative = inhibition, usual class: inhibitors; hit rate 1.6% among 230,000; active = well fitted inhibition curve with a large enough effect, not every such curve was filed as active; inconclusive = small, poorly fitted or top-dose-only effect, or another doubt; inactive = no such curve, though single readings can be large or run the other way;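 also: potency is read from the fitted curve at half-maximal effect; 0% = wells with enzyme and -100% = buffer wells without enzyme; nearly all actives have a fitted effect of over 50% in size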
Sfp inh = qHTS Assay for Inhibitors of Bacillus subtilis Sfp phosphopantetheinyl transferase (PPTase); 4'-phosphopantetheinyl transferase ffp (Bacillus subtilis), Q9F4F7; Biochemical Sfp PPTase activity, qHTS; Potency, µM, without a hit: max response, negative = inhibition, actives largely listed as inhibitors; 310,000 tested, 3.5% active; active = well fitted inhibition curve with a large enough effect; inconclusive = small, poorly fitted or top-dose-only effect, or another doubt; inactive = no such curve, though single readings can be large or run the other way;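 also: the enzyme is Sfp with the accession as filed and its product quenches rhodamine fluorescence; potency is read from the fitted curve at half-maximal effect; 0% = enzyme reaction without inhibitor and -100% = no enzyme wells; top concentration of the series not given in the record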
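Fluorescence-quenching assay with 15 nM Sfp, 5 uM rhodamine-CoA and 12.5 uM BHQ-2-labelled ybbR peptide in pH 7.6 Hepes/MgCl2 buffer. Enzyme was pre-incubated with compound for 15 min at room temperature. Rate was taken from the 30-min fluorescence change (525/598 nm).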
* hit, by the source's call; u = inconclusive; x = no result; [ ] = remark or other dose. Sampled rows, rich in hits. Any-hit rate of the full collection: about 13%. Unless noted, calls follow the shape of the dose curve; as a rule, active = well fitted curve in the direction sought with a large enough effect; inconclusive = small, poorly fitted or top-dose-only effect, or another doubt; inactive = no such curve, though single readings can be large; an effect the other way counts as inactive or inconclusive.

LMNA splice mod | miR-21 FLuc | ALDH1A1 block | G9a inh | KDM4E inh | Sfp inh | molecule
x | -1% | x | 11µM* | x | 22% | Cc1c(C(=O)NNC(=S)Nc2ccc(S(N)(=O)=O)cc2)oc2ccccc12
x | -4% | 13µM* | 56µM* | 0% | 56µM* | CN(C)S(=O)(=O)c1ccc(NC(=S)NC(=O)c2ccc(Br)o2)cc1
x | -52% | x | 45µM* | x | 16% | O=C(NC(=S)Nc1ccccc1Br)c1ccco1
x | -42% | x | u | x | -3% | Cc1cccc(NC(=S)NC(=O)c2ccco2)c1C
x | x | x | -1%[59 µM] | x | x | NS(=O)(=O)c1ccc(CCNC(=O)CNC(=O)c2ccc(Br)o2)cc1
x | -4% | x | 8.9µM* | x | 25% | NS(=O)(=O)c1ccc(NC(=S)NNC(=O)c2ccc(Br)o2)cc1
x | x | x | 3%[59 µM] | x | x | OC[C@H]1OC(O)[C@H](O)[C@@H]1O (stereo partly drawn)
x | -46% | x | u | -5% | 56µM* | CCOc1ccc(NC(=S)NC(=O)c2ccco2)cc1

Profiles from above:
Shown for Cc1c(C(=O)NNC(=S)Nc2ccc(S(N)(=O)=O)cc2)oc2ccccc12 = LMNA splice mod = x; miR-21 FLuc = -1%; ALDH1A1 block = x; G9a inh = 11µM*; KDM4E inh = x; Sfp inh = 22%
Shown for O=C(NC(=S)Nc1ccccc1Br)c1ccco1 = LMNA splice mod = x; miR-21 FLuc = -52%; ALDH1A1 block = x; G9a inh = 45µM*; KDM4E inh = x; Sfp inh = 16%

Just miR-21 FLuc and LMNA splice mod, for two of the compounds above:
| canonical_smiles | miR-21 FLuc | LMNA splice mod |
| --- | --- | --- |
| Cc1c(C(=O)NNC(=S)Nc2ccc(S(N)(=O)=O)cc2)oc2ccccc12 | -1% | x |
| CN(C)S(=O)(=O)c1ccc(NC(=S)NC(=O)c2ccc(Br)o2)cc1 | -4% | x |

The list goes on.
LMNA splice mod | miR-21 FLuc | ALDH1A1 block | G9a inh | KDM4E inh | Sfp inh | molecule
-3% | -8% | u | 4%[59 µM] | 0% | 3% | CCOC(=O)CSc1nc2ccccc2c(=O)n1Cc1ccco1
17% | -6% | u | -29%[59 µM] | -4% | 3.5µM* | CCOC(=O)CSc1nc2c(sc3ccc([N+](=O)[O-])cc32)c(=O)n1Cc1ccco1
11%[0.0737 µM] | -4% | u | 10%[0.501 µM] | -1% | -6% | CCOC(=O)CSc1nc2c(sc(=S)n2Cc2ccco2)c(=O)n1-c1ccccc1
18% | -8% | u | 45µM* | 1% | -2% | CCOC(=O)CSc1nc2c(sc(=S)n2-c2ccccc2OC)c(=O)n1Cc1ccco1
16% | 0% | 6.3µM* | u | 10% | 2% | CCN(CC)C(=O)CSc1nc2c(sc(=S)n2Cc2ccco2)c(=O)n1-c1ccccc1
0% | x | 10% | 10%[0.501 µM] | x | -6% | COc1cccc(-c2nccc(NCc3cnc(C)cn3)n2)c1
x | 25% | x | -48%[59 µM] | x | x | COc1ccccc1N1CCN(S(=O)(=O)c2c(C)sc3ncn(CC(=O)N(C)c4ccc(C(C)C)cc4)c(=O)c23)CC1
x | -3% | x | u | x | x | Cc1ccc(OCCCC(=O)Nc2sc3c(c2C(N)=O)CCCC3)cc1
u | -9% | -13% | 40µM* | 3% | -27% | COc1cc(OC)c(C2=NOC(C(=O)Nc3ccc4c(c3)OCO4)C2)cc1Cl (stereo not drawn)
x | 6% | x | -1%[59 µM] | x | x | COc1ccccc1CNC(=O)CCc1c(C)nc2c(c(C)nn2-c2ccc(C)c(C)c2)c1C
-3% | 0% | 32µM* | -22%[59 µM] | 0% | 13% | CN1C(=O)SC(Nc2ccccc2)C1=O (stereo not drawn)
17% | -7% | 1% | -5%[59 µM] | -6% | 9% | O=C(O)c1cccc(CN2C(=O)CSC2=O)c1
x | -3% | u | 50µM* | 5% | u | O=C(O)c1cccc(CN2C(=O)SC(Nc3cccc4ccccc34)C2=O)c1 (stereo not drawn)
1% | -3% | u | u | 7% | 16% | CN1C(=O)SC(Nc2ccc(F)cc2)C1=O (stereo not drawn)
4% | 4% | 25µM* | u | 4% | -18% | Cc1ccc(NC2SC(=O)N(Cc3cccc(C(=O)O)c3)C2=O)cc1 (stereo not drawn)
21% | -1% | u | 40µM* | u | u | O=C(O)CN1C(=O)SC(Nc2ccccc2C(=O)O)C1=O (stereo not drawn)
x | -13% | x | -36% | 7% | 0% | Cc1ccc(NC2SC(=O)N(Cc3cccc(C(=O)O)c3)C2=O)c(C)c1 (stereo not drawn)
x | -1% | x | 9% | x | 13% | COC(=O)c1cccc(N(CC(=O)NC2CCCCC2)C(=O)CNC(=O)c2cccs2)c1
x | x | 1%[13.5 µM] | x | x | 7% | CC(C)=CCC/C(C)=C/CO/N=C1/C[C@@H](O)[C@@H](O)[C@@H]2[C@@H]3C(=O)N(C4CCCCC4)C(=O)[C@H]3CC[C@@H]12
4% | -10% | 7.1µM* | u | -1% | -28% | O=C(O)c1cccc(CN2C(=O)SC(Nc3ccccc3)C2=O)c1 (stereo not drawn)
u | u | 13µM* | u | 3% | -6% | O=S(=O)(C/C(=C/CO)S(=O)(=O)c1ccccc1)c1ccccc1
x | -3% | x | 51% | x | 1% | COC(=O)c1cn(C(=O)c2cc(OC)cc(OC)c2)c2ccccc12
8% | -4% | 0% | 45µM* | 5% | 11% | COc1cc(OC)cc(C(=O)n2cnnc2N)c1
x | -3% | x | 18% | u | 15% | Cc1cc(C)n2cnnc2n1
0% | 3% | 1.4µM* | 1.1µM* | 7.1µM* | 2.8µM* | Cc1cc(C)n2c(=S)[nH]nc2n1
x | 4% | 32µM* | 9% | 0% | -5% | O=C(CSC(=S)N1CCCCC1)c1ccccc1
u | x | 10% | 13µM* | 0% | -4% | Cc1ccc(C(C)C)cc2c(C)ccc1-2
u | u | x | 18µM* | x | x | COc1cccc(N2CCN(C(=O)c3nc(-c4ccc(Cl)cc4)n4c3CCCCC4)CC2)c1
1%[46 µM] | -6% | x | -9%[59 µM] | x | x | Cc1ccc(-c2nc(C(=O)NCc3ccccc3Cl)c3n2CCCCC3)cc1
u | 14% | x | 11µM* | x | x | Cc1cccc(CCNC(=O)c2nc(-c3ccc(Cl)cc3)n3c2CCCCC3)c1
-10%[46 µM] | 0% | x | u | x | x | O=C(c1nc(-c2ccc(Cl)cc2)n2c1CCCCC2)N1CCN(c2ccccc2)CC1
-13%[46 µM] | 15% | x | 13µM* | x | x | COc1ccc(CCNC(=O)c2nc(-c3ccc(Cl)cc3)n3c2CCCCC3)c(OC)c1
4%[46 µM] | -3% | x | -39%[59 µM] | x | x | COC(=O)c1ccccc1NC(=O)c1nc(-c2ccc(Cl)cc2)n2c1CCCCC2
x | u | x | -5%[59 µM] | x | x | Cc1sc2ncn(CC(=O)N3CCN(c4cccc(Cl)c4)CC3)c(=O)c2c1S(=O)(=O)N1CCC(C)CC1
x | x | 1%[13.5 µM] | x | x | 1% | CC[C@@H](c1ccccc1)n1c(=O)n2n(c1=O)[C@H]1[C@H](O)[C@H]3O[C@@H]3/C(=N/OCc3ccccc3)[C@@H]1CC2
x | -32% | x | 13µM* | -3% | 16% | Cc1ccc(NC(=S)NNC(=O)c2cccc([N+](=O)[O-])c2)cc1Cl
x | 2% | x | 20µM* | x | -3% | CC1(C(=O)NNC(=O)c2cccc([N+](=O)[O-])c2)CC1(Br)Br (stereo not drawn)
-2% | 0% | -3% | 11%[59 µM] | -2% | 17% | Cc1ccc(C)c(NC(=O)CCC(=O)NNC(=O)c2cccc([N+](=O)[O-])c2)c1
x | 0% | 14µM* | 6%[59 µM] | -2% | -15% | Cc1csc(C(=O)O)c1NC(=O)c1cccc([N+](=O)[O-])c1
u | 15% | 1.3µM* | u | -19% | 2.5µM* | O=[N+]([O-])c1ccc(NNC(=S)Nc2ccc(F)cc2)cc1
